Reference: US20250099548A1, “PHARMACEUTICAL COMPOSITION FOR PREVENTING OR TREATING DEGENERATIVE BRAIN DISEASES, CONTAINING GLUCAGON-LIKE PEPTIDE-1 AND INTERLEUKIN-1 RECEPTOR ANTAGONIST” (GI INNOVATION, INC., priority 2022, published 2025)
Entries after “also recorded” stand apart in the source; their conditions may differ.

What was measured:
Format in all cases: in vivo, mouse
Tg-APP/PS1 mice [1] = experiment: Aβ plaque deposition in brain tissue, thioflavin S staining; details: Example 2; GI210B1, GI210B1C1, GI210B1CN at 1.2, 0.7778, 1.1745 mg/kg intraperitoneal, 4 times for 2 weeks
Description: Accordingly, in order to confirm the effect of treating Alzheimer's disease by intraperitoneal administration of GI210B1, the Tg-APP/PS1 mice administered with GI210B1 (Tg+GI210B1) and the Tg-APP/PS1 mice (Tg+Veh), a control group, were sacrificed, and then the brain tissue was extracted, and Aβ plaques were stained using thioflavin S, and then the degree of Aβ plaque deposition in the parietal cortex, hippocampus, and piriform cortex regions was analyzed.
Specifically, for immunohistochemical analysis using thioflavin S staining, the brain was collected after perfusion for the mouse with 4% paraformaldehyde, and then the brain was further fixed with 4% paraformaldehyde overnight at 4° C. The brain tissue sections were prepared by cutting the fixed brain tissue to a thickness of 40 m using a vibratome. […] At that time, the stained image was analyzed using MetaMorph Microscopy Automation & Image Analysis software (Molecular device). The amount of plaque was quantified and expressed as the number of plaques per unit area and the sum of the plaque areas. […]
In the same manner as in Example 1.3 above, the mice were sacrificed, and then the brain tissue was extracted, and the degree of Aβ plaque deposition in the parietal cortex, hippocampus, and piriform cortex regions was analyzed using thioflavin S, which stains Aβ plaques. […]

Tg-APP/PS1 mice [2] = experiment: MAP-2 immunofluorescence staining of hippocampal CA1 region; details: Example 2; GI210B1, GI210B1C1, GI210B1CN at 1.2, 0.7778, 1.1745 mg/kg intraperitoneal, 4 times for 2 weeks
From the text: Long-term memory is regulated at synapses between axons of neurons and dendrites of target neurons, and the microstructure of neurons is greatly influenced by the state of neuron health. Changes in the microstructure of dendrites of neurons are important for maintaining memory. The microstructure of the dendrites of such neurons can be observed as an image by staining with an anti-MAP-2 antibody (GeneTex, CatNo. GTX133109) located in the dendrites.
Therefore, in order to determine the mechanism of action of cognitive function improvement and memory recovery effects of GI210B1, the Tg-APP/PS1 mice administered with GI210B1 (Tg+GI210B1), the wild type mice (WT) as a normal group, and the Tg-APP/PS1 mice (Tg or Tg+Veh) as a control group were sacrificed, and then the brain tissue was extracted, and the microstructural status of the dendrites (dendritic process) of the hippocampus was analyzed.
In the same manner as in Example 1.4.1 above, the mice from each group were sacrificed, and then the brain tissue was extracted, and the microstructural status of the dendrites of the hippocampus was analyzed.

Tg-APP/PS1 mice [3] = experiment: DCX immunochemical staining of hippocampal DG region; details: Example 2; intraperitoneal, 4 times for 2 weeks
From the text: DCX (doublecortin) is continuously expressed during the 2-3 weeks during which immature neurons mature, and is expressed in […]. For this reason, DCX is used as a marker of neurogenesis, indicating the degree of neuronal differentiation and after the metaphase of newly generated neurons.
In order to confirm the effect of GI210B1 on the decreased neurogenesis in the DG (dentate gyrus) region of the hippocampus of Tg mice, the Tg-APP/PS1 mice administered with GI210B1 (Tg+GI210B1), the wild type mice (WT) as a normal group, and the Tg-APP/PS1 mice (Tg or Tg+Veh) as a control group were sacrificed, and then the brain tissue was extracted, and the DG region of the hippocampus was stained with DCX.
In the same manner as in Example 1.4.2 above, the mice from each group were sacrificed, and then the brain tissue was extracted, and the DG region of the hippocampus was stained with DCX.

B1: GI210B1C1: fusion protein dimer comprising an IgG4 Fc domain and an IL-1 receptor antagonist; SEQ ID NO: 24 (protein)
chain: ESKYGPPCPPCPAPEAAGGPSVFLFPPKPKDQLMISRTPEVTCVVVDVSQEDPEVQFNWYVDGVEVHNAKTKPREEQFNSTYRVVSVLTVLHQDWLNGKEYKCKVSNKGLPSSIEKTISKAKGQPREPQVYTLPPSQEEMTKNQVSLTCLVKGFYPSDIAVEWESNGQPENNYKTTPPVLDSDGSFFLYSRLTVDKSRWQEGNVFSCSVLHEALHNHYTQKSLSLSLGGGGGSGGGGSGGGGSGGRPSGRKSSKMQAFRIWDVNQKTFYLRNNQLVAGYLQGPNVNLEEKIDVVPIEPHALFLGIHGGKMCLSCVKSGDETRLQLEAVNITDLSENRKQDKRFAFIRSDSGPTTSFESAACPGWFLCTAMEADQPVSLTNMPDEGVMVTKFYFQEDE
modifications: dimer; IgG4 Fc-IL-1Ra
amount of plaque deposited in the brain (number of plaques per unit area and sum of plaque areas) (Tg-APP/PS1 mice [1]): tended to be reduced; also recorded: statistically significantly reduced compared to the control group (Tg+Veh)
expression level of MAP-2 in the CA1 region of the hippocampus (Tg-APP/PS1 mice [2]): higher than that of the control group (Tg+Veh); also recorded: recovered to a level similar to that of the normal group
number of DCX positive cells in the DG region of the hippocampus (Tg-APP/PS1 mice [3]): statistically significantly increased compared to the control group (Tg+Veh), and was recovered to a level similar to that of the normal group (WT+Veh)
